# Binding of CDR-mutated scFvs to a peptide of the spike HR2 region

Binding partner: SARS-CoV-2 spike HR2 peptide, sequence PDVDLGDISGINAS.

The variants keep the light chain, the linker and the frameworks of Ab-14 (scFv order VH, the linker GGGGSGGGGSGGGGS, VL).
VH: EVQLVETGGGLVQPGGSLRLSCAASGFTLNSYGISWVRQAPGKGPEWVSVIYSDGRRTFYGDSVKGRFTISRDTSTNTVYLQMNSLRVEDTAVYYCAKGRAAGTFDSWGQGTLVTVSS
VL: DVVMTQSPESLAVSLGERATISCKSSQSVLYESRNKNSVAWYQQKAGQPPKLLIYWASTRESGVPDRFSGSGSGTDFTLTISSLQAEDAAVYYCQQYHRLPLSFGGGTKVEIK

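The parent was found by panning a naive human phage display library on the peptide. Variants in AAYL49 differ from the parent at up to three CDR positions; double and triple changes were sampled at random. Affinity was read by AlphaSeq, a pooled yeast mating assay with surface-displayed partners. The frequency of each diploid, read from paired DNA barcodes, reflects how well the two displayed proteins bind. Each replicate has its own calibration line, from reference interactions of the BCL2 family. Mating was done three times.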

Sequences are complete VH domains.
The read-out is the apparent dissociation constant on a log10 scale (nM): the lower, the stronger.
"n.d." means that the variant was in the library but no mating with the target was seen in that replicate; the authors take this as a sign of poor binding, and no number exists.
As a blank, each scFv also met three strains without target: over library AAYL49, 15% of these pairings were detected, typically at 4.06 and seldom below 2.83. For each scFv, signals with the empty controls are counted beside the result, with their mean in brackets.
For reference, the parent read 0.65 as the reference entry and 4.11 (one replicate of three) as a member of this library.

{"VH": "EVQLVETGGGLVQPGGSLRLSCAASGFTLNSYGIKWVRQAPGKGPEWVSVIYSDGRRSFYGDSVKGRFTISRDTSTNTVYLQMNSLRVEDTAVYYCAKGKAAGTFDSWGQGTLVTVSS", "log10 Kd (nM) by replicate": "n.d. / 4.18 / n.d.", "empty controls": "0 of 9"}
{"VH": "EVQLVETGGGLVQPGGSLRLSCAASGFMLNSYGQSWVRQAPGKGPEWVSVIYSDGRRTDYGDSVKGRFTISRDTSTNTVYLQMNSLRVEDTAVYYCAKGRAAGTFDSWGQGTLVTVSS", "log10 Kd (nM) by replicate": "3.06 / 3.72 / 3.11", "empty controls": "2 of 9 (4.12)"}
{"VH": "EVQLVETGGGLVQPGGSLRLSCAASIFTLNSYGIMWVRQAPGKGPEWVSVIYSDGARTFYGDSVKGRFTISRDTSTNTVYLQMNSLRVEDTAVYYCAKGRAAGTFDSWGQGTLVTVSS", "log10 Kd (nM) by replicate": "n.d. / n.d. / n.d.", "empty controls": "2 of 9 (3.76)"}
{"VH": "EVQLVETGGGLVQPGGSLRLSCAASGFTLNSYGISWVRQAPGKGPEWVSVIKSDGRRTFYGDSAKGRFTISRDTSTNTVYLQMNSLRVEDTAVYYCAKGRAASTFDSWGQGTLVTVSS", "log10 Kd (nM) by replicate": "n.d. / n.d. / n.d.", "empty controls": "3 of 9 (3.61)"}
{"VH": "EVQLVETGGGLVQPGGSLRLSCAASGFTQNSYMISWVRQAPGKGPEWVSVIYSDGRRPFYGDSVKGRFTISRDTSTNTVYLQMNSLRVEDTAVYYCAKGRAAGTFDSWGQGTLVTVSS", "log10 Kd (nM) by replicate": "n.d. / n.d. / 3.23", "empty controls": "0 of 9"}
{"VH": "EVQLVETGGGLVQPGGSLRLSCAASGFTLNSYGISWVRQAPGKGPEWVSVILSDGRRTFYGDSVKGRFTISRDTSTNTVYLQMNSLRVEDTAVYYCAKGRAAGTFMSWGQGTLVTVSS", "log10 Kd (nM) by replicate": "n.d. / 4.38 / n.d.", "empty controls": "0 of 9"}
{"VH": "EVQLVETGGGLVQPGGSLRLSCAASGCTLNSYGISWVRQAPGKGPEWVSVIYSDGRFTFYGISVKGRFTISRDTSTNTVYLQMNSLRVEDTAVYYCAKGRAAGTFDSWGQGTLVTVSS", "log10 Kd (nM) by replicate": "n.d. / n.d. / n.d.", "empty controls": "0 of 9"}
{"VH": "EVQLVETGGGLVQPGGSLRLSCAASGFTSNSYGISWVRQAPGKGPEWVSVIYSEGSRTFYGDSVKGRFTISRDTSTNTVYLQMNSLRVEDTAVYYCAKGRAAGTFDSWGQGTLVTVSS", "log10 Kd (nM) by replicate": "n.d. / n.d. / n.d.", "empty controls": "1 of 9 (2.11)"}
{"VH": "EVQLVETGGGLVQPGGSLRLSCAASGFTLNSYGISWVRQAPGKGPEWVSSIYSDGRRTFYGDSVKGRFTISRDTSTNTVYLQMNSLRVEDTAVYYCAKGDAAGTFDSWGQGTLVTVSS", "log10 Kd (nM) by replicate": "n.d. / n.d. / 6.16", "empty controls": "4 of 9 (4.25)"}
{"VH": "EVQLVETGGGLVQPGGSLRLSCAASGFTLNSYGISWVRQAPGKGPEWVSVIYSDGRRTFPGDSVVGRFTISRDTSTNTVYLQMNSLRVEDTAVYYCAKGRAAGTFVSWGQGTLVTVSS", "log10 Kd (nM) by replicate": "n.d. / n.d. / n.d.", "empty controls": "0 of 9"}
{"VH": "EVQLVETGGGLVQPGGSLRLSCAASGFTIISYGISWVRQAPGKGPEWVSVIYSDGRRTFYGDSVKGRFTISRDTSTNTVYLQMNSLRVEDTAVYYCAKGRAAWTFDSWGQGTLVTVSS", "log10 Kd (nM) by replicate": "4.34 / 5.44 / n.d.", "empty controls": "2 of 9 (4.89)"}
{"VH": "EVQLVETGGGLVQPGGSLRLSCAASGFTLNYYGISWVRQAPGKGPEWVSVIYSDGRRTFYGDSVKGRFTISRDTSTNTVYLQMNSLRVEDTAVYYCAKGRAAGSFLSWGQGTLVTVSS", "log10 Kd (nM) by replicate": "n.d. / n.d. / n.d.", "empty controls": "0 of 9"}
{"VH": "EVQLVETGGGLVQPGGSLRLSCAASGFTLVSYGGSWVRQAPGKGPEWVSVIYSDGRRTFYGDSVKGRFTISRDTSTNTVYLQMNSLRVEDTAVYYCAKGRAAGTFDSWGQGTLVTVSS", "log10 Kd (nM) by replicate": "n.d. / 3.87 / 4.71", "empty controls": "0 of 9"}
{"VH": "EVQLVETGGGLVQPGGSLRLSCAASGFTLNSYPISWVRQAPGKGPEWVSVIYSDGRRTFYGDSVKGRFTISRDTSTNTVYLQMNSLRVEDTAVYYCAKGRAVGTFDMWGQGTLVTVSS", "log10 Kd (nM) by replicate": "3.69 / 4.58 / 5.75", "empty controls": "2 of 9 (3.66)"}
{"VH": "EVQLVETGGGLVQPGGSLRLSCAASGFTLNSYGISWVRQAPGKGPEWVSVIYSDGRFTFYGDSVKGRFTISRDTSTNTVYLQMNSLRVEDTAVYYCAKGRAAKTQDSWGQGTLVTVSS", "log10 Kd (nM) by replicate": "n.d. / n.d. / n.d.", "empty controls": "0 of 9"}
{"VH": "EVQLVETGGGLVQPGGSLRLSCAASGFRLNKYGISWVRQAPGKGPEWVSVIYSDGRRTFYGDSVKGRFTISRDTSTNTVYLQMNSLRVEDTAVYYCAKGRAYGTFDSWGQGTLVTVSS", "log10 Kd (nM) by replicate": "n.d. / n.d. / n.d.", "empty controls": "1 of 9 (3.33)"}
{"VH": "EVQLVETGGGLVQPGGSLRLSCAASGFQKNSYTISWVRQAPGKGPEWVSVIYSDGRRTFYGDSVKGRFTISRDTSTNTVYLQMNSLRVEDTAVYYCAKGRAAGTFDSWGQGTLVTVSS", "log10 Kd (nM) by replicate": "5.87 / n.d. / 3.91", "empty controls": "3 of 9 (4.13)"}
{"VH": "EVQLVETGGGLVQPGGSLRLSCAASGFYLNSYGISWVRQAPGKGPEWVSVIRSDGRRTFYGDSVQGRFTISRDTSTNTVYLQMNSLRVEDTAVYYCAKGRAAGTFDSWGQGTLVTVSS", "log10 Kd (nM) by replicate": "n.d. / n.d. / n.d.", "empty controls": "0 of 9"}
{"VH": "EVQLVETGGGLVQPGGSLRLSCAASGFTLNSYGIIWVRQAPGKGPEWVSVIYSDGRRFYYGDSVKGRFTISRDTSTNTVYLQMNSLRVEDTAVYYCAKGRAAGTFDSWGQGTLVTVSS", "log10 Kd (nM) by replicate": "2.89 / 4.38 / n.d.", "empty controls": "1 of 9 (3.29)"}
{"VH": "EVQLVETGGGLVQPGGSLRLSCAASGFTLDSYGISWVRQAPGKGPEWVSVINSIGRRTFYGDSVKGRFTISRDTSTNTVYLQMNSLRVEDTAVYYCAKGRAAGTFDSWGQGTLVTVSS", "log10 Kd (nM) by replicate": "n.d. / n.d. / n.d.", "empty controls": "0 of 9"}
{"VH": "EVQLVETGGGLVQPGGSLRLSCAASGFTANSYGISWVRQAPGKGPEWVSVIYSDGRRTFWGDSVKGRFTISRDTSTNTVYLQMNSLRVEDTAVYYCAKGRAAATFDSWGQGTLVTVSS", "log10 Kd (nM) by replicate": "n.d. / n.d. / 3.87", "empty controls": "0 of 9"}

The 2 strongest on average among those seen in every replicate, once more:

{"VH": "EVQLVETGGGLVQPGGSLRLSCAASGFMLNSYGQSWVRQAPGKGPEWVSVIYSDGRRTDYGDSVKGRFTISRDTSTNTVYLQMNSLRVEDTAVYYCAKGRAAGTFDSWGQGTLVTVSS", "log10 Kd (nM) by replicate": "3.06 / 3.72 / 3.11", "empty controls": "2 of 9 (4.12)"}
{"VH": "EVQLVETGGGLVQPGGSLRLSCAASGFTLNSYPISWVRQAPGKGPEWVSVIYSDGRRTFYGDSVKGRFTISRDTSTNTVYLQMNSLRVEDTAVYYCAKGRAVGTFDMWGQGTLVTVSS", "log10 Kd (nM) by replicate": "3.69 / 4.58 / 5.75", "empty controls": "2 of 9 (3.66)"}

Reference: Engelhart et al. 2022, doi:10.1038/s41597-022-01779-4. File: FLAb, binding data.